According to US6605424B1, “Method of detecting inhibitors of agonist-specific desensitization” (Duke University, priority 1989, dated 2003):
Several values for one entry are separate records, joined by “and”; a condition that tells them apart may be missing. Equal values may be shown once.

Assays:
[1] = biological target: T1, βAR kinase (Bos taurus, UniProt P21146); assay: Inhibition of β2AR phosphorylation by βAR kinase by synthetic peptides (Example III); assay type: biochemical, bovine; conditions: hamster β2AR peptides; ND = no significant inhibition at ˜500 μM
T1 construct: βAR kinase was purified from bovine cerebral cortex; from tissue; host or cells: bovine cerebral cortex
T1 sequence (P21146 1-689): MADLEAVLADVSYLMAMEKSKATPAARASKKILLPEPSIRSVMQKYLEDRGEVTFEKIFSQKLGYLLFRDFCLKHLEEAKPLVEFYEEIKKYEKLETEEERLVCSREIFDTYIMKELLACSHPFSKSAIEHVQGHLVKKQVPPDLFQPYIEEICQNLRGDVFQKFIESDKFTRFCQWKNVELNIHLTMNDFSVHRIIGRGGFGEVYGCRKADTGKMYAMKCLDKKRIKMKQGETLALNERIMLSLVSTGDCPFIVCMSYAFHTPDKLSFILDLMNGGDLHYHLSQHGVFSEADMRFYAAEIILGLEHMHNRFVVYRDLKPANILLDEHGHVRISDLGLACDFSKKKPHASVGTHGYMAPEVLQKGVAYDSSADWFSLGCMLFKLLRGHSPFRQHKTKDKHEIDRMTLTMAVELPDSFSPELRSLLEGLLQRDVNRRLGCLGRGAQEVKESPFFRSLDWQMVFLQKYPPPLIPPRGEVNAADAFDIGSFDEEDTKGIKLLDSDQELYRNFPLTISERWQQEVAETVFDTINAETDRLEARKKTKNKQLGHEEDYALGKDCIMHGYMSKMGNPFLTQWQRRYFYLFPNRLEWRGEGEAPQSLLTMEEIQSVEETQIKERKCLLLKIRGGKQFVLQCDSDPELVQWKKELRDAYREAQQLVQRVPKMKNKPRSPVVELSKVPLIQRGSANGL
Experimental: FIG. 13. Inhibition of β2AR phosphorylation by synthetic peptides. Reconstituted β2AR (˜0.4 pmol) was incubated for 30 min at 30° with purified βAR kinase (˜30 ng) in the presence of 50 mM Tris-HCl, pH 7.5, 2 mM EDTA, 10 mM NaCl, 5 mM MgCl2, 5 mM sodium phosphate, 50 μM (−)-isoproterenol and 0.10 mM [γ^32P]ATP (2.0 cpm/fmol). Synthetic β2AR peptides were varied from 0 to 1 mM and included CI (Δ), CII (▴), CIII-2 (◯) and CT-1 (●). Reactions were stopped by the addition of […]. ^32P-labeled receptor was determined by cutting and counting the dried gel following autoradiography.
The β2-adrenergic receptor from hamster lung was purified to apparent homogeneity by sequential affinity and high performance liquid chromatography as described (Benovic et al (1984) Biochemistry 23:4510-4518). The purified receptor was reinserted into phosphatidylcholine vesicles as previously described (Cerione et al (1983) Nature 306:562-566). The protein-lipid pellets were resuspended in 20 mM Tris-HCl, pH 7.2, 2 mM EDTA and used as a substrate for the βAR kinase.
βAR kinase was purified from bovine cerebral cortex by modification of a previously described procedure (Benovic et al (1987) J. Biol. Chem. 262:9026-9032). Briefly, 250 g of bovine cortex was homogenized and the resulting high speed supernatant fraction was precipitated with 13-26% ammonium sulfate. This material was initially chromatographed on an Ultrogel AcA34 column equilibrated with 5 mM Tris-HCl, pH 7.5, 2 mM EDTA, 5 μg/ml leupeptin, 5 μg/ml pepstatin, 15 μg/ml benzamidine, 0.2 mM phenylmethyl sulfonyl fluoride (buffer A). The peak activity was diluted 1:1 with buffer A containing 0.02% triton X-100 and applied to a DEAE Sephacel column. Elution was accomplished with a 0-80 mM NaCl gradient in buffer A containing triton X-100. The peak activity was then applied directly to a CM Fractogel column and eluted with a 0-100 mM NaCl gradient in buffer A containing triton X-100. The purified kinase was stored at 4° C. […]

[2] = biological target: protein kinase A (Homo sapiens, UniProt P17612); assay: Peptides as substrates for protein kinase A; assay type: biochemical

| Compound | IC50 [1] | substrate for protein kinase A [2] |
| --- | --- | --- |
| CC(C)C[C@H](NC(=O)[C@H](CO)NC(=O)[C@H](CCC(N)=O)NC(=O)[C@H](Cc1ccc(O)cc1)NC(=O)[C@H](CCCCN)NC(=O)[C@H](Cc1ccccc1)NC(=O)[C@@H]1CCCN1C(=O)[C@@H](N)CO)C(=O)N[C@@H](CC(C)C)C(=O)N[C@H](C(=O)N[C@@H](CCCCN)C(=O)N[C@@H](CC(N)=O)C(=O)N[C@@H](CCCCN)C(=O)N[C@@H](C)C(=O)N[C@@H](CCCNC(=N)N)C(=O)O)[C@@H](C)O [CII (137-151)] | 70 to 320 µM and 240 µM | – |
| CC[C@H](C)[C@H](NC(=O)[C@H](CCCCN)NC(=O)[C@H](CCC(N)=O)NC(=O)[C@H](CC(C)C)NC(=O)[C@H](CCC(N)=O)NC(=O)[C@H](CCCNC(=N)N)NC(=O)[C@H](CCCCN)NC(=O)[C@H](C)NC(=O)[C@@H](NC(=O)[C@H](CCC(N)=O)NC(=O)[C@H](Cc1ccccc1)NC(=O)[C@@H](NC(=O)[C@H](CCCNC(=N)N)NC(=O)[C@H](CO)NC(=O)[C@@H](N)Cc1ccc(O)cc1)C(C)C)C(C)C)C(=O)N[C@@H](CC(=O)O)C(=O)N[C@@H](CCCCN)C(=O)N[C@@H](CO)C(=O)N[C@@H](CCC(=O)O)C(=O)NCC(=O)N[C@@H](CCCNC(=N)N)C(=O)N[C@@H](Cc1ccccc1)C(=O)N[C@@H](Cc1c[nH]cn1)C(=O)N[C@@H](CO)C(=O)N1CCC[C@H]1C(=O)O [CIII-1 (219-243)] | 70 to 320 µM and 76 µM | – |
| CC(C)C[C@H](NC(=O)CNC(=O)[C@H](Cc1c[nH]cn1)NC(=O)CNC(=O)[C@H](CO)NC(=O)[C@H](CCCNC(=N)N)NC(=O)CNC(=O)[C@H](CC(=O)O)NC(=O)[C@H](CCC(N)=O)NC(=O)[C@H](CCC(=O)O)NC(=O)[C@@H](N)C(C)C)C(=O)N[C@@H](CCCNC(=N)N)C(=O)N[C@@H](CCCNC(=N)N)C(=O)N[C@@H](CO)C(=O)N[C@@H](CO)C(=O)N[C@@H](CCCCN)C(=O)N[C@@H](Cc1ccccc1)C(=O)N[C@@H](CS)C(=O)N[C@@H](CC(C)C)C(=O)N[C@@H](CCCCN)C(=O)N[C@@H](CCC(=O)O)C(=O)O [CIII-2 (248-268)] | 70 to 320 µM and 208 µM | serve as substrates for protein kinase A |
